Source: patent US20050014700A1, “Cbi analogues of cc-1065 and the duocarmycins” (priority 2001, published 2005)

Test system: L1210
Details: for enhancement in cytotoxic potency relative to (+)-N-Boc-CBI: relative to N-Boc-CBI (80 nM)

Substance: 1-(Chloromethyl)-5-hydroxy-3-{[4-[4-(tert-Butoxycarbonylamino)-1-methylpyrrol-2-yl)carbonyl]amino-1-methylpyrrol-2-yl]carbonyl}-1,2-dihydrobenzo[e]indole [X10-Y10]
- lower cytotoxicity compared to 25: 100 fold
- enhancement in cytotoxic potency relative to (+)-N-Boc-CBI: 180 fold

Substance: 1-(Chloromethyl)-5-hydroxy-3-{[4-[4-(tert-Butoxycarbonylaminothiophen-2-yl)carbonyl]aminothiophen-2-yl]carbonyl}-1,2-dihydrobenzo[e]indole [X8-Y8]
- enhancement in cytotoxic potency relative to (+)-N-Boc-CBI: 275 fold
